According to patent US20020035738A1, “Plant protection method” (priority 1996, published 2002):

Tested on: pPDF1.2-GUS-tNOS transgene
Experiment: β-glucuronidase activity in seedlings of pPDF1.2-GUS-tNOS Arabidopsis lines germinated on jasmonic acid
Assay type: in vivo, Arabidopsis thaliana ecotype C24
Conditions: Arabidopsis thaliana
Description: The ability of the pPDF1.2-GUS-tNOS transgene to respond to jasmonic acid treatment was first assessed on the progeny of six independent T0 transgenic Arabidopsis lines. Seeds of each of these lines were germinated aseptically, either on Murashige and Skoog agar medium containing 1% sucrose and 50 μM kanamycin or the same medium supplemented with 10 μM jasmonic acid. […] The β-glucuronidase activity was normalized to the total protein content in each sample, as determined by the method of Bradford (1976) using bovine serum albumin as a […].

In the case of CC/C=C\C[C@H]1C(=O)CC[C@@H]1CC(=O)O [jasmonic acid], the fold induction at 10 µM (read-out: Fold induction of β-glucuronidase activity, transgenic line 3, JA-treated vs control, 10 μM jasmonic acid) is reported as 25.2, the fold induction at 10 µM (read-out: Fold induction of β-glucuronidase activity, transgenic line 4, JA-treated vs control, 10 μM jasmonic acid) is reported as 8.7 and the fold induction at 10 µM (read-out: Fold induction of β-glucuronidase activity, transgenic line 5, JA-treated vs control, 10 μM jasmonic acid) is reported as 9. For the same molecule, the fold induction at 10 µM (read-out: Fold induction of β-glucuronidase activity, transgenic line 6, JA-treated vs control, 10 μM jasmonic acid) was 14.5, the fold induction at 10 µM (read-out: Fold induction of β-glucuronidase activity, transgenic line 7, JA-treated vs control, 10 μM jasmonic acid) was 9.7 and the fold induction at 10 µM (read-out: Fold induction of β-glucuronidase activity, transgenic line 19, JA-treated vs control, 10 μM jasmonic acid) was 25.2.

Where two headings read alike, the source gives them in different places.
